Data from PubChem BioAssay AID2774 (Circadian Research, Kay Laboratory, University of …, 2010).
The list shows a part of the results, in another mix than the full data. The source made the active and inactive calls. How the calls were made is not given here.

Assay: compounds altering circadian rhythm period length – cell-based, LOPAC library, luminescence reporter (AID 2774);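 further: values are relative to mean of DMSO wells on each plate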
Details: circadian reporter cells, at 7 µM, actives lie on both sides

SMILES	period change
N#[O+].[C-]#N.[C-]#N.[C-]#N.[C-]#N.[C-]#N.[Fe+2].[Na+].[Na+]	inactive: -0.045 h
